# Assay results: ChEMBL document CHEMBL5500420, “Discovery of BI-9508, a Brain-Penetrant GPR88-Receptor-Agonist Tool Compound for In Vivo Mouse Studies” (J Med Chem, 2024)
# Assay: Metabolic stability in mouse liver microsomes assessed as hepatic blood flow at 1 uM in presence of NADPH by LC-MS/MS analysis
row,SMILES,QH
1,CC(C)Oc1ccc(-c2ccc(N(CCOC(F)F)C(=O)[C@@H]3C[C@H]3c3ccncn3)c3oncc23)cc1,0.27
2,COc1cc(-c2ccc(O[C@@H](C)C(F)(F)F)nc2)ccc1N(CCOC(F)F)C(=O)[C@@H]1C[C@H]1c1ccncn1,0.4
3,CC(C)Oc1ccc(-c2ccc(N(CCOC(F)F)C(=O)[C@@H]3C[C@H]3c3ccncn3)c3ncnn23)cc1,0.77
